Assay results taken from patent publication US12433876B2, “Septin inhibitors for treatment of cancers” (UNIVERSITY OF ROCHESTER, priority 2019, dated 2025).

Test system: SKOV-3 xenograft tumors
Experiment: SKOV-3 xenograft tumor growth
Type: in vivo, NSG mice
Description: Cell Cycle Protein Expression. Cell Cycle Antibody Array (FullMoon BioSystems Inc, catalogue number: ACC:058), a high throughput ELISA based antibody array, designed for qualitative/semi-quantitative protein expression profiling was employed to investigate the protein changes after drug treatment. PANC-1 cells were lysed in buffer containing protease and phosphatase inhibitors (Cell Signaling, catalog number: 9803S). Total protein content was quantified by Bradford assay and equal amounts of proteins were analyzed in duplicate with arrays containing 4 to 6 spots for each of 60 probes (ACC058, Cell Cycle Antibody Array; Full Moon Biosystems, Sunnyvale, Calif.), according to manufacturer's instructions. After background correction, mean signal intensities were measured using FullMoon Inc's imaging services. Protein expressions in both the naïve and 328 treatment group was normalized to GAPDH signals. Confocal Analysis of Septin Disarrangement. To determine the impact of UR214-9 treatment on Septin-2 structure in cells, PANC-1 or JIMT-1 cells were seeded on glass slides and allowed to adhere overnight. The media was replaced with complete DMEM media supplemented with DMSO or UR214-9 (1 μM and 70 nM) and cells were incubated for 48 hours. Media was replaced again with new complete medium and fixed with neutral buffered formalin for 15 minutes at […]. Media was removed and cells were washed repeatedly with PBST (5×5 mL). The cells were stained with Septin-2 antibody (Sigma Aldrich, catalog number: HPA018481) in PSB overnight at […]. Media was removed again and cells were washed with 2×5 mL PBST. The cells were stained with fluorescence linked secondary antibody for 1 hr under dark. Slides were washed repeatedly in dark for 7×5 mL PBST, mounting medium containing DAPI (Vector labs) were applied and covered with glass slide. The slides were stored in dark at 40 C till analysis. […] Five cells were outlined and analyzed per field. […]

trastuzumab: anti-HER2 antibody trastuzumab (Herceptin™) [reference compound]
tumor growth during treatment (UR214-9 25 mg/kg, M-F, I.P., trastuzumab 10 mg/kg, M): controlled the growth of tumors
weight of extracted tumors (day 53 since inoculation): matched the average size seen in vehicle group
tumor size after treatments were stopped (treatment stopped on day 27): reached the average size in control
